Antibody variant affinities, Ab-14 light chain, assay B

Target peptide (SARS-CoV-2 spike, HR2 region): PDVDLGDISGINAS

Ab-14 is the parent antibody, in scFv form: VH, then the linker GGGGSGGGGSGGGGS, then VL. The heavy chain is unchanged in all variants.
VH: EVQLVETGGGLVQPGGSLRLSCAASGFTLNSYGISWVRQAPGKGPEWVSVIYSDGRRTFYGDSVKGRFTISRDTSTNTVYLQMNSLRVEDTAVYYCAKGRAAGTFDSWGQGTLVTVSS
VL: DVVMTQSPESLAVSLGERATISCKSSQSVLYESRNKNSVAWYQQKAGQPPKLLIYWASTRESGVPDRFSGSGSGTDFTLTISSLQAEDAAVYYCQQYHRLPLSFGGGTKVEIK

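The parent was found by panning a naive human phage display library on the peptide. The variants were designed computationally from a first round of random CDR variants and then made and measured. Group labels follow the data file (En: ensemble of fine-tuned language models; GP: Gaussian process model; HC: hill climbing; Gen: genetic algorithm; Gibbs: Gibbs sampling; a sequence that several methods proposed may carry one label only). AlphaSeq pools MATa yeast showing the antibodies with MATalpha yeast showing the peptide. Pairs that bind mate more often; barcode pairs of the diploids are counted by sequencing. Read counts were normalised to the haploid input and turned into Kd by a linear fit to BCL2-family pairs of known affinity, for each replicate. Each pool was mated in six replicate cultures.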

Each variant is given by its three light chain CDRs, as the data file delimits them; those of the parent are KSSQSVLYESRNKNSVA, WASTRES, QQYHRLPLS. Variants here have more than six changes. The read-out is the apparent dissociation constant on a log10 scale (nM): the lower, the stronger. "nd" means that the variant was in the library but no mating with the target was seen in that replicate; the authors take this as a sign of poor binding, and no number exists. A sequence measured in both rounds can read differently, since the two assays cover different ranges.

With QIAMEMYHGLNDAQNVA / DAMTCEK / QQYSRLPLF [En_Gibbs] the result was nd, 2.67, nd, 2.49, nd, nd. Variant MVTMELRYGDAWQNPIA / EASHLEV / QQYAHLPLG [En_Gibbs] gave 1.22, 0.89, 0.30, 0.67, 1.16, 1.22. Variant HVESDWLESNAKKKNVA / NGQGRVE / QQYGRLPLQ [En_Gibbs] gave 0.69, 0.14, 0.03, 0.10, 0.04, 0.14. For IVSQLMLWGMHVKNSIA / EAVTRLN / QQYDRLPLG [En_Gen], the assay gave nd, nd, 1.77, nd, nd, nd. For KLREVQHVESKQKNNVA / DNSTRES / QDYHRLPLS [En_HC], the assay gave 2.16, 2.18, 1.97, 2.29, 2.96, 2.42. With MMSQVTGQGMTHRNNVA / QTSTREP / QQYDRLPLV [En_Gen] the result was nd, 1.46, 1.21, 2.37, 2.31, 1.41.

Variant HITDLMYNNNEGEKNIA / DKNISVM / QQYFRLPLS [En_Gibbs] showed nd, 2.19, nd, nd, nd, nd. Variant HMSMITLMGSKNRNSVA / QMTTREN / QQYDRLPLA [En_Gen] showed 1.77, nd, 1.46, nd, 3.48, 2.26. Variant KFSQTVNSMSVSKSAVA / EMSTRPE / QQYNRLPLS [En_Gen] gave 0.88, 0.66, 0.52, 0.83, 0.97, 1.04. Variant KLLQTVMNETRNRNNVA / HMTMRED / QQYHRLPLS [En_HC] gave 0.54, 0.85, 0.92, 0.84, 0.66, 0.50. With MISQMYNMGSFAINSVA / QASLRND / QQYDRLPLT [En_Gen] the result was 2.04, 1.99, 1.85, nd, 3.78, nd. For TISSSVNMTSHGRNSVA / QAEMRES / QQYDRLPLS [En_HC], the assay gave 2.01, 1.37, 1.54, 0.82, 1.24, 1.24.

Variant VFQQQWDGVTLTNSAVA / NVDERME / QQYNRLPLM [En_Gibbs] gave 0.71, 0.59, 0.35, 0.55, 0.35, 0.56. Variant KVLQEMPYESRMANSVA / NASQRES / QQYHRLPLS [GP_Gibbs] gave 1.10, 1.10, 0.42, 0.87, 0.46, 0.61. Variant NVGNEDPGQNYMHDSIA / GRSLRAE / QQYWRLPLL [En_Gibbs] showed -0.05, -0.04, -0.08, -0.38, -0.33, -0.08. Variant KLSMITGHMSMSRENVA / EMETREN / QQYDRLPLS [En_Gen] gave 0.73, 0.56, 0.61, 0.68, 0.42, 0.73. With MLTMFNNENQGWSNNIA / DTNNVQE / QQYSRLPFM [En_Gibbs] the result was 1.10, 0.94, 0.83, 0.49, 0.64, 0.72. Variant HVSQSVLQGQRNKNSVA / EASQRER / QQYHRLPLS [GP_Gibbs] gave 0.26, -0.14, -0.08, -0.17, -0.15, 0.03.

Variant KLLQNVTTEGKNRNNVA / HMTMREQ / QQYWRLPLS [En_HC] gave 1.91, 1.89, 1.68, 1.12, 1.78, 2.15. With KLLQNTGAGYRWAQNVA / HMSTREE / QQYHRLPFV [En_Gen] the result was 0.94, 0.91, 0.93, 0.69, 0.74, 0.97. Variant KVSVFMRGLTQRKDSIA / DNNTRQN / QQYDRLPLS [En_Gen] showed 0.61, 0.78, 0.83, 1.05, 0.88, 1.08. Variant SLHMMPPVGYAYDENVA / NASQLFS / QQYFRLPLT [En_Gibbs] gave nd, 2.28, 2.52, 2.90, 1.67, nd. Variant SISSLTLYESVNKNNVA / EMSTRPS / QSYHRLPLS [En_HC] showed 0.39, 0.35, -0.15, 0.33, 0.18, 0.50. With SLGLVTMLEYANRNNVA / NNSTREK / QQYDRLPLS [En_Gen] the result was 1.09, 1.23, 1.57, 0.95, 1.46, 1.09.

Variant KISQTVLYQGRTWNAVA / QMSTREN / QQYDRLPLS [En_HC] showed 1.52, 1.26, 2.16, 0.86, 1.49, 1.81. For RVRNEMGKEMERGQSVA / ETEQRCM / QQYAQLPLI [En_Gibbs], the assay gave 1.29, 0.57, 0.43, 0.56, 0.17, 0.43. Variant KLLQNVGTEGRNRNNVA / HMDMRED / QQYWRLPLS [En_HC] gave 0.54, 0.54, 0.95, 0.89, 0.43, 0.23. Variant MLSMVADISQKNRNSVA / EMTTREK / QQYDRLPLE [En_Gen] gave -0.20, 0.82, 0.06, -0.28, -0.15, 0.70. Variant KIGGVTNGISRSKNSVA / EQSTRED / QQYDRLPLI [En_HC] showed 1.25, 0.89, 0.86, 0.79, 1.21, 1.02. With RVTNELGKEMERKQSVA / ETDQRCM / QQYFRLPLI [En_Gibbs] the result was 0.31, 0.42, 0.32, 0.20, 0.19, 0.44.

Variant MVSQLMLWGLHAKYSIA / EAVTRLN / QQYDRLPLI [En_Gen] showed nd, nd, nd, nd, nd, nd. Variant MLSYNLHDMGRNKNNVA / EMNKSTT / QDYHRLPLA [En_Gibbs] showed 0.00, 0.25, 0.08, 0.12, 0.11, 0.16. For KQSQSGPYEDRNFNSVA / HASTRIS / QQYHRLPLS [GP_Gibbs], the assay gave 0.31, 0.40, 0.33, 0.53, 0.05, 0.43. With TISDVMGHLTKAHNNVA / DMDTRGD / QQYNRLPLS [En_Gen] the result was 0.23, 0.12, 0.00, -0.21, -0.03, 0.01. Variant KFGQSVLMGSYVRNSVA / QQSTREN / QQYDRLPLS [En_HC] gave 1.48, 0.86, 1.21, 0.80, 0.76, 1.22. For KISYMGEHFSTNHSAIA / QASTREV / QQYHRLPIS [En_HC], the assay gave 0.99, 1.17, 1.04, 0.83, 0.91, 1.01.

Variant RIDDYPNMLGKNIESIA / EAALTLT / QQYARLPLS [En_Gibbs] gave 1.28, 1.03, 1.49, 0.87, 1.32, 1.26. Variant RVQINSGHSDMHWKSIA / SASIRAD / QQYERLPLA [En_Gibbs] showed 0.36, 0.00, 0.35, 0.45, 0.19, 0.24. With QIYQAMHTLSQMKDNVA / DVNERGQ / QQYFRLPLS [En_Gen] the result was 0.44, 0.48, 0.23, 0.43, 0.04, 0.36. Variant MISQLYNMGQFAINSVA / QASIRNS / QQYDRLPLI [En_Gen] showed 2.02, 1.61, 1.36, 1.11, 2.19, 1.34. For TIGQTLMQGIRNRSNVA / EVSQRLN / QQYDRLPLE [En_Gen], the assay gave 2.37, 1.57, 1.42, 1.54, 1.62, 1.59. With KLSMITGHMSVSKNNVA / EMETREK / QQYERLPLS [En_Gen] the result was 0.14, 0.05, 0.15, 0.08, 0.00, -0.04.

With KVDMGELPNGFNRSSVA / QAEVRAP / QQYWRLPLE [En_Gibbs] the result was 1.34, 1.53, 0.92, 0.89, 0.99, 1.16.

Picked from the list: the 3 lowest averages where every replicate gave a value.

CDR-L1,CDR-L2,CDR-L3,group,"replicates, log10 nM"
NVGNEDPGQNYMHDSIA,GRSLRAE,QQYWRLPLL,En_Gibbs,"-0.05, -0.04, -0.08, -0.38, -0.33, -0.08"
HVSQSVLQGQRNKNSVA,EASQRER,QQYHRLPLS,GP_Gibbs,"0.26, -0.14, -0.08, -0.17, -0.15, 0.03"
TISDVMGHLTKAHNNVA,DMDTRGD,QQYNRLPLS,En_Gen,"0.23, 0.12, 0.00, -0.21, -0.03, 0.01"

Of ten entries with the parent sequence, four were seen in most replicates (averages 0.34 to 2.37), three in one and three in none, so single entries are noisy. Background: pairings of all light chain designs with three empty control strains gave a value in 4% of cases (median 2.64, 5th percentile 1.59). Values in that range, when seen in few replicates, are hard to tell from nonspecific mating. The authors averaged sequences with at least three values out of six and counted those with two or fewer as poor binders.

Data: MIT Lincoln Laboratory AlphaSeq set, Li et al. 2023, doi:10.1038/s41467-023-39022-2, as distributed in FLAb.